Measured values: ChEMBL document CHEMBL3886452, “Buprenorphine analogs” (2015)

Tests used:
[1] = biological target: T1, Delta-type opioid receptor (Homo sapiens, UniProt P41143)
Mu-type opioid receptor [2] = biological target: T2, Mu-type opioid receptor (Homo sapiens, UniProt P35372)
[3] = biological target: T3, Kappa-type opioid receptor (Homo sapiens, UniProt P41145)
Mu-type opioid receptor [4] = biological target: T2, Mu-type opioid receptor; remark: listed apart in the source
[5] = biological target: T1, Delta-type opioid receptor; remark: listed apart in the source
[6] = biological target: T3, Kappa-type opioid receptor; settings: sf9

SMILES | Ki [1] [µM] | Ki (Mu-type opioid receptor [2]) [µM] | EC50 [3] [µM] | EC50 (Mu-type opioid receptor [4]) [µM] | EC50 [5] [µM] | Ki [6] [µM]
COc1ccc2c3c1O[C@H]1[C@@]4(OC)CC[C@@]5(C[C@@H]4COCc4c(C)noc4C)[C@@H](C2)N(CC2CC2)CC[C@]315 | 0.18 | 0.0927 | 0.0211 | 0.127 | 0.229 | 
COc1ccc2c3c1O[C@H]1[C@@]4(OC)CC[C@@]5(C[C@@H]4COCc4ccc(OCC(=O)O)cc4)[C@@H](C2)N(CC2CC2)CC[C@]315 | 0.355 | 0.545 | 0.202 |  | 0.4 | 0.0316
